In PMC10740061 (Food Chemistry: X, 2023):
Marks after values point to notes of the source that are not given here.

Tested on: Caco-2 monolayer
Test: Caco-2 monolayer transmembrane transport, apical to basolateral
Assay type: in vitro ADME, human
Conditions: WD (wheat flour digested products) 400 µg/mL; 40 µM flavonoid; 6 h; A to B; mean ± SD (n = 3)

O=c1c(O)c(-c2ccc(O)c(O)c2)oc2cc(O)cc(O)c12 [Quercetin]
PappAtoB: 10.83 ± 0.25^c × 10^-6 cm/s
